Measurements published in article PMC3386930, “Altering APP Proteolysis: Increasing sAPPalpha Production by Targeting Dimerization of the APP Ectodomain” (PLoS ONE, 2012).

The chains behind the UniProt entries cited, without tags or fusion partners. Where a name states a change or a piece, a line headed by the entry shows the natural chain unless it says otherwise.
UniProt P05067: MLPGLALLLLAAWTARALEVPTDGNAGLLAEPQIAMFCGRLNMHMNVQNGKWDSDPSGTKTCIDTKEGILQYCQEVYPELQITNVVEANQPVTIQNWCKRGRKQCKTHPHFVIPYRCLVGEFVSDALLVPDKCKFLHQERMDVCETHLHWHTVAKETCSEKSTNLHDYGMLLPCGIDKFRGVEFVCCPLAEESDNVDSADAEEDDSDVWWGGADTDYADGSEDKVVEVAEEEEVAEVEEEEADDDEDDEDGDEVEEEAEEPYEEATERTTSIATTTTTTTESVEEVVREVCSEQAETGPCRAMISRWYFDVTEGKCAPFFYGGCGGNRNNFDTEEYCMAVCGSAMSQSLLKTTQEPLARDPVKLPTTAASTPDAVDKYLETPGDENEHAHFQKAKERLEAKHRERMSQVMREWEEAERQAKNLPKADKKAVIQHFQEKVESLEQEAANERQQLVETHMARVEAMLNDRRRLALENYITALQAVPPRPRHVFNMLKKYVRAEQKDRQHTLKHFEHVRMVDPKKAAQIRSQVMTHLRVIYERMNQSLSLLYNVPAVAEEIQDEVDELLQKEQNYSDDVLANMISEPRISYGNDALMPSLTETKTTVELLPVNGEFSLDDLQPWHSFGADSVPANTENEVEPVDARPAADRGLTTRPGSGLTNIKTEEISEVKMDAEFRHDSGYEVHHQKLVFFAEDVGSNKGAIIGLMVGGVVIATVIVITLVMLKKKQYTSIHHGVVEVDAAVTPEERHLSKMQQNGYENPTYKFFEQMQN

Test: Size-exclusion chromatography of Aβ fragments
Type: physicochemical
Conditions: Superdex 75 column, PBS, indicates smaller dimers or monomers
Procedure: All peptides were purchased from Anaspec. All of the work reported herein was performed using one peptide lot. The APP319-335 peptide and RERMS peptides were reconstituted in PBS. The Aβ peptides were reconstituted by adding 30 µl of 100 mM sodium hydroxide to 0.5 mg of peptide. Once the peptides were fully dissolved, PBS was added to bring the concentration to 10–20 µM for Aβ1-40 or Aβ1-42. The more soluble Aβ fragments were diluted to 200 µM. […] In short, the aliquots of Aβ1-40 or Aβ1-42 were incubated at 37°C for variable times and then characterized using a calibrated Superdex 75 column with PBS as the running buffer. […] The incubation times for the 7-kDa Aβ1-40, 13-kDa Aβ1-40 or 13-kDa Aβ1-42, 70-kDa Aβ1-42 and 70-kDa Aβ1-40 and >200-kDa Aβ1-42 were 15 minutes, 30 minutes, 1 hour, 18 hours and 2 hours, respectively. To fragment the >200-kDa Aβ1-42 species, each 1 ml aliquot was sonicated for three pulses of 4 seconds at 60% of maximum amplitude. […] However, the optimal incubation times to produce each type of oligomer had to be determined empirically each time the oligomers were prepared. […]
The black line indicates the starting concentration and the gold line indicates the final concentration. The arrow indicates the direction of shift of the fluorescence peak. […] The arrow indicates the direction of shift of the fluorescence peak. […]

Aβ10-20: Aβ fragment (YEVHHQKLVFF; Amyloid-beta protein 42; UniProt P05067 681-691, looked up, fragment)
elution later than the 7-kDa peak: 0.5 mls
